# Measurements: US7202043B2, “Detecting cell membrane protein endocytosis” (Discover Corporation, priority 2004, dated 2007)
# Biological target: T1, V2 receptor tagged with a FLAG sequence (Homo sapiens, UniProt P30518)
# T1 construct: expressed in transfected cells; host or cells: CHO (Chinese Hamster Ovary) cells
# Assay: Endocytosis assay (Protocol I): enzyme fragment complementation with ED-labeled anti-FLAG antibody, chemiluminescence readout
# Type: cell-based
# Settings: CHO cells expressing FLAG-tagged V2 receptor, 50,000 cells/well; agonist 1 μM; incubated 5, 10, 15, 30 or 60 minutes; signal rises up to thirty minutes, decreases after
# Protocol: Cells are suspended in media with 10% fetal bovine serum, plated in a 96-well tissue culture plate, and allowed to grow overnight under standard tissue culture conditions at 37° C. The next day, media is exchanged and replaced with 50 μL serum free media.
# 10 μL of ED labeled anti-FLAG antibody (145 nM reagent concentration) is added to each well, then the plate is incubated for 1 hour at 37° C. (tissue culture incubator). After the incubation is complete, 10 μL agonist or vehicle (assay buffer without agonist) is added to appropriate wells, and the plate is incubated for an additional 30 minutes at 37° C.
# 10 μL of Chyrnotrysin Reagent (100 units/mL chymotrypsin, 7 mM EDTA in PBS) is added to all wells, and the plate is incubated for 15 minutes at room temperature. Then 140 μL of Cell Lysis Reagent containing protease inhibitor (0.75% CHAPS, 75 μM chymostatin, 3 mg/mL BSA fragments in a phosphate buffered saline) is added, and incubated for 10 minutes at 37° C. This is followed by the addition of 20 μL of EA Reagent (360 μg/mL EA in a buffered solution with carrier protein) and an incubation of 1 hour at 37° C. In the final step, chemiluminescent substrate (Tropix) is added, incubated at least 20 minutes, and then the signal is read on a luminescence reader. […]
substance,measurement,value
[Arg8]-Vasopressin [AVP],internalization of antibody-ED conjugate bound to FLAG-tagged receptor (RLU vs. incubation time with AVP),increasingly internalized
